These are literature values, as cited in patent US8933038B2, “Method of treating cancer with an HLA-A*3303-restricted WT1 peptide and pharmaceutical composition comprising the same” (International Institute of Cancer Immunology, Inc., priority 2006, dated 2015).

By UniProt entry, the sequences of proteins in these tests, tags left out. Where a name states a change or a piece, a line headed by the entry shows the natural chain unless it says otherwise.
UniProt P19544: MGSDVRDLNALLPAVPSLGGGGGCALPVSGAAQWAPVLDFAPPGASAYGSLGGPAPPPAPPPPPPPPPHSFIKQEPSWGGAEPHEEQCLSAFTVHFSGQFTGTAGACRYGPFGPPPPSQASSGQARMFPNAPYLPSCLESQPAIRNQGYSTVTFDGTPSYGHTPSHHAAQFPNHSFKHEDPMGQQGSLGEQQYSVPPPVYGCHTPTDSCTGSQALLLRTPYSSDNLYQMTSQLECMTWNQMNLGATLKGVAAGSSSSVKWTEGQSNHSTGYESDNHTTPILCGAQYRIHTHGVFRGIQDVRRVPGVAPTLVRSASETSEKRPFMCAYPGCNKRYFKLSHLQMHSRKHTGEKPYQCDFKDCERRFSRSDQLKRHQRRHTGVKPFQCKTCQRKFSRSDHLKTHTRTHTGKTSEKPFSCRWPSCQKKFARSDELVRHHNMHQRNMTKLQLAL

The series relates to human peripheral blood mononuclear cells having HLA-A*0201. The settings on record: human PBMCs having HLA-A*0201 stimulated with peptide; Non-patent Document 11; cited from earlier work.

With “Db126 peptide: WT1 peptide having a high ability to bind to an HLA-A*0201 molecule (RMFPNAPYL; UniProt P19544 126-134, looked up, fragment)”, the “induction of WT1-specific CTLs” value is on record as “WT1-specific CTLs are induced”.
